Results on 1 molecule are retold here after paper PMC5209244 (Bioorganic & medicinal chemistry, 2016).

Protein sequences, listed by entry. Tags and fused reporters are not part of them.
UniProt P28223, whole entry: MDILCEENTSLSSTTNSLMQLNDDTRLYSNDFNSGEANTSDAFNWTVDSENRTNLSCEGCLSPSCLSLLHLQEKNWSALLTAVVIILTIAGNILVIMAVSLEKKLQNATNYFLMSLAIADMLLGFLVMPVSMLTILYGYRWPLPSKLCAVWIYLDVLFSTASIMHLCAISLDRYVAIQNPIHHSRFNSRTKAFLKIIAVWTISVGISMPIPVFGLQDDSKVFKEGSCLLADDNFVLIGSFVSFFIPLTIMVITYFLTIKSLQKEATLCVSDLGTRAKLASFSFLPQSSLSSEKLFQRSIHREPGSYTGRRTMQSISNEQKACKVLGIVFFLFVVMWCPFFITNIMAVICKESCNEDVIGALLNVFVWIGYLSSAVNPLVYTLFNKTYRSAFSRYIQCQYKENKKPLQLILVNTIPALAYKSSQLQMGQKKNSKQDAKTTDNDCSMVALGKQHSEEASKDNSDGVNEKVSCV

The target in this assay is 5-HT2AR (Homo sapiens, UniProt P28223). Briefly: NIMH-PDSP radioligand binding, 5-HT2A receptor.

Take `O=C1NCN(c2ccccc2)C12CCN(CCCCc1nc3cc(Cl)ccc3s1)CC2` [Compound 8, 8-(4-(5-chlorobenzo[d]thiazol-2-yl)butyl)-1-phenyl-1,3,8-triazaspiro[4.5]decan-4-one]: the “pKi ± SE 5-HT2A” value is listed as 5.8±0.1.
